The values below come from patent publication US9284300B2 (dated 2016).

Sequences of proteins named here, by UniProt entry; tags and fusion partners are left off. Residues count along the entry.
UniProt P08581, 25-1390: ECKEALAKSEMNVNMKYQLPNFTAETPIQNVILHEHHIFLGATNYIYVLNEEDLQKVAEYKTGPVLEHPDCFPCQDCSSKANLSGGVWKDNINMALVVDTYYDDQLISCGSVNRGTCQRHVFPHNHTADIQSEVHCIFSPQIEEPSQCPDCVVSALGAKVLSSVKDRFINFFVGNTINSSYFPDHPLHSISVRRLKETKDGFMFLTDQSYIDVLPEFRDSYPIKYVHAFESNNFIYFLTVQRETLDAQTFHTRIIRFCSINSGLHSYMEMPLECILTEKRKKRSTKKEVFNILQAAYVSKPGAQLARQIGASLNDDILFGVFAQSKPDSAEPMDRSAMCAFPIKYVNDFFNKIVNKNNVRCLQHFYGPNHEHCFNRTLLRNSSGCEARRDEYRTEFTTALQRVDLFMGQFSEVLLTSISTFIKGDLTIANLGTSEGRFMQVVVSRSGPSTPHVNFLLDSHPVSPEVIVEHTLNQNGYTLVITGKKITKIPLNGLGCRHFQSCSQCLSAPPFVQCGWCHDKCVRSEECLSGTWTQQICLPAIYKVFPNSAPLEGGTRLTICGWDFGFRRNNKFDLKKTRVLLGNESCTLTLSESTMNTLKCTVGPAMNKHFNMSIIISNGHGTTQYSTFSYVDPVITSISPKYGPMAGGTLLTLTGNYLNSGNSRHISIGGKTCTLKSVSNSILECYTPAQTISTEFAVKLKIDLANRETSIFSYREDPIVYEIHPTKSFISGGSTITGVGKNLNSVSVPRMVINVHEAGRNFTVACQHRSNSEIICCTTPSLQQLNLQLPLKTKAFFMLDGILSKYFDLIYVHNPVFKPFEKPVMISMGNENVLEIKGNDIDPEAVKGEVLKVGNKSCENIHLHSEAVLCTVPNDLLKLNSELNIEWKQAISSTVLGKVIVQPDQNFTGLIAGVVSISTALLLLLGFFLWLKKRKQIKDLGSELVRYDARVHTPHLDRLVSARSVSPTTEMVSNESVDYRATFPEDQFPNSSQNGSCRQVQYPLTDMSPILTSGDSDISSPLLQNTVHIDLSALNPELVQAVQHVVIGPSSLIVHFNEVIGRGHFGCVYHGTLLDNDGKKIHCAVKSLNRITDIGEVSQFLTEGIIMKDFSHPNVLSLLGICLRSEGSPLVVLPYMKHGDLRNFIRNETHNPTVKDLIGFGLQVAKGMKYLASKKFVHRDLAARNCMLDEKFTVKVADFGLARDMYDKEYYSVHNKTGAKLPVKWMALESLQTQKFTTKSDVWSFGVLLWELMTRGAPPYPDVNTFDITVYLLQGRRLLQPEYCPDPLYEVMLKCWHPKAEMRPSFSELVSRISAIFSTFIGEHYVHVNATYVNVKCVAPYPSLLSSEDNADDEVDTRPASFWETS

Structures are written as SMILES.

This experiment concerns the target Met kinase (Homo sapiens, UniProt P08581). The experiment is described as follows: Met kinase inhibition, cell assay. The experiment is classed as cell-based.

In general, IC50 refers to the concentration that inhibits the measured activity by half. A high value points to weaker potency in that assay. `Cn1cc(-c2ccc(=O)n(Cc3cccc(-c4ncc(OCCN5CCOCC5)cn4)c3)n2)cn1` [A229, 6-(1-methyl-1H-pyrazol-4-yl)-2-{3-[5-(2-morpholin-4-ylethoxy)pyrimidin-2-yl]benzyl}-2H-pyridazin-3-one] gave an IC50 of 1 to 1000 nM.
